The experiment addresses T1, human P-selectin (Homo sapiens, UniProt P16109).
T1 construct: IgG-Fc (fusion partner); purchased R&D Systems Europe Ltd., Abingdon, United Kingdom
The experiment can be described thus: Competition assay with TM11-PO (competition ELISA). In kind it is binding. Particulars: Table 2, average of at least 3 experiments at 8 concentrations, read-out: IC50 for human P-selectin as determined by competition Elisa. Here is the method: Compounds according to the invention, as prepared in examples 1, 2 and 3 and some reference peptide compounds were assayed for its ability to inhibit TM11-PO binding to human P-selectin. […] For competition studies, a 96 wells microtiter plate (high binding, flat bottom, Costar, Corning, U.S.A.) was coated overnight at 4° C. with 10 μg/ml goat anti-human IgG (Fc specific) (Sigma-Aldrich, Zwijndrecht, the Netherlands) in coating buffer (50 mM NaHCO3, pH 9.6). Subsequently, wells were washed with assay buffer and incubated for 1 hour at 37° C. with blocking buffer (3% BSA in assay buffer). After washing with assay buffer, the wells were incubated for 2 hours at 37° C. with the human P-selectin IgG-Fc chimera (R&D Systems Europe Ltd., Abingdon, United Kingdom) (0.3 μg/ml). Subsequently, wells were washed with assay buffer and incubated for 1 hour at 4° C. with the TM11-PO complex. The wells were washed six times with washing buffer (0.1% Tween 20 in assay buffer). […] (TMB)/hydrogen peroxide (H2O2) (Pierce, Rochford, U.S.A.) was added and wells were incubated at room temperature for 15 minutes. The reaction was halted by addition of 2 M H2SO4 and the absorbance was measured at 450 nm.

Protein sequences, listed by entry. Tags and fused reporters are not part of them. Chains listed by the source or under a name are the forms on record and can include a tag or linker.
UniProt P16109, with tags, fused parts or gaps limits assumed: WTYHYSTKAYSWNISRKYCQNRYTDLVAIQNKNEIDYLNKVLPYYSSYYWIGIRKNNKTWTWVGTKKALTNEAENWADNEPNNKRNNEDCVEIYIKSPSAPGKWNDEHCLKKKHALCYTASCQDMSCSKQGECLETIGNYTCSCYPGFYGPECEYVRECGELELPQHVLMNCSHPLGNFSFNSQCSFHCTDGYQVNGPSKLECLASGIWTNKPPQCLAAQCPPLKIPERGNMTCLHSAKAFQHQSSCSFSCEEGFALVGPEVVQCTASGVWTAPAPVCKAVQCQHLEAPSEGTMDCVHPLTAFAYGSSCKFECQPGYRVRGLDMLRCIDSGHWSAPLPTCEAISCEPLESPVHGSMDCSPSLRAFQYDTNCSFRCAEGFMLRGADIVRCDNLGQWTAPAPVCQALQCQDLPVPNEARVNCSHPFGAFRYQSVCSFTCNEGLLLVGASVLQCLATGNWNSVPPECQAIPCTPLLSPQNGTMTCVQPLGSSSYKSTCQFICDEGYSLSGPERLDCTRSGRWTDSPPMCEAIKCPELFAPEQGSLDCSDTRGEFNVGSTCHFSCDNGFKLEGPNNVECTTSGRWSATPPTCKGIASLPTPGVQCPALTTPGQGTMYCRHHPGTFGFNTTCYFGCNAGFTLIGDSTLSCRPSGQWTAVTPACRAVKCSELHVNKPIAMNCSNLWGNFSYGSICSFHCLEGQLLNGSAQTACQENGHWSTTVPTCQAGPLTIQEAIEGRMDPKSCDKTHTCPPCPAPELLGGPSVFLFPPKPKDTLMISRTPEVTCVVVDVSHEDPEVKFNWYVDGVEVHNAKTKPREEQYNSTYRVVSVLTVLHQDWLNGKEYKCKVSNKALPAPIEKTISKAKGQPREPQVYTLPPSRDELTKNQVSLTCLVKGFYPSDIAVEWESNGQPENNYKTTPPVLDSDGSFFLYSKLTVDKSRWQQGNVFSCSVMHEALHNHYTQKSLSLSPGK

`CC(=O)N[C@@H](Cc1c[nH]c2ccccc12)C(=O)N[C@H](C(=O)N[C@@H](CC(=O)O)C(=O)N[C@H](C(=O)O)C(C)C)C(C)C` [Peptide 11, Ac-WVDV]: the IC50 worked out at 27 µM.

Source of the values: patent US20060217294A1, “Compounds binding to p-selectin” (YAMANOUCHI EUROPE B.V., priority 2002, published 2006).
